From PubChem BioAssay (NCI)
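96-well plates; 48 h exposure; 5 concentrations. Endpoints by linear interpolation between flanking doses. Not reached: highest tested concentration assigned. GI50: concentration for 50% inhibition of growth. TGI denotes the concentration required for complete inhibition of growth.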

Experiments:
Assay in all cases: NCI anticancer screen, dose series, 48 h
HOP-92 NSCLC = system: HOP-92 NSCLC
PC-3 prostate = system: PC-3 prostate
EKVX NSCLC = system: EKVX NSCLC
M14 melanoma = system: M14 melanoma
U251 CNS = system: U251 CNS
ACHN renal = system: ACHN renal
SF-268 CNS = system: SF-268 CNS
NCI-H226 lung = system: NCI-H226 lung
SN12C renal = system: SN12C renal
HL-60(TB) leukemia = system: HL-60(TB) leukemia
SF-539 CNS = system: SF-539 CNS
IGROV1 ovarian = system: IGROV1 ovarian
A498 renal = system: A498 renal
UO-31 renal = system: UO-31 renal
SK-OV-3 ovarian = system: SK-OV-3 ovarian
KM12 colon = system: KM12 colon
TK-10 renal = system: TK-10 renal
MOLT-4 leukemia = system: MOLT-4 leukemia
SNB-19 CNS = system: SNB-19 CNS
SNB-75 CNS = system: SNB-75 CNS
786-0 renal = system: 786-0 renal
HOP-62 NSCLC = system: HOP-62 NSCLC
HCT-15 colon = system: HCT-15 colon
UACC-62 melanoma = system: UACC-62 melanoma
SK-MEL-2 melanoma = system: SK-MEL-2 melanoma
OVCAR-8 ovarian = system: OVCAR-8 ovarian
HT29 colon = system: HT29 colon
COLO 205 colon = system: COLO 205 colon
SF-295 CNS = system: SF-295 CNS
K-562 leukemia = system: K-562 leukemia
RXF 393 renal = system: RXF 393 renal
A549 NSCLC = system: A549 NSCLC
MCF7 breast = system: MCF7 breast
OVCAR-3 ovarian = system: OVCAR-3 ovarian
SK-MEL-5 melanoma = system: SK-MEL-5 melanoma
NCI-H322M lung = system: NCI-H322M lung
SK-MEL-28 melanoma = system: SK-MEL-28 melanoma
SW-620 colon = system: SW-620 colon
UACC-257 melanoma = system: UACC-257 melanoma
CCRF-CEM leukemia = system: CCRF-CEM leukemia
BT-549 breast = system: BT-549 breast
NCI-H23 lung = system: NCI-H23 lung
DU-145 prostate = system: DU-145 prostate
OVCAR-5 ovarian = system: OVCAR-5 ovarian
MDA-MB-231 breast = system: MDA-MB-231 breast
LOX IMVI melanoma = system: LOX IMVI melanoma
HCT-116 colon = system: HCT-116 colon
HS 578T breast = system: HS 578T breast
SR leukemia = system: SR leukemia
RPMI-8226 leukemia = system: RPMI-8226 leukemia
T-47D breast = system: T-47D breast
MDA-MB-435 = system: MDA-MB-435
NCI/ADR-RES ovarian = system: NCI/ADR-RES ovarian
OVCAR-4 ovarian = system: OVCAR-4 ovarian
MALME-3M melanoma = system: MALME-3M melanoma
NCI-H460 lung = system: NCI-H460 lung
CAKI-1 renal = system: CAKI-1 renal

O=[N+]([O-])c1cccc(Oc2ccc([N+](=O)[O-])cc2[N+](=O)[O-])c1 was tested, and the GI50 (HOP-92 NSCLC) was 1.91 µM, the TGI (HOP-92 NSCLC) was 18.7 µM and the GI50 (PC-3 prostate) was 4.49 µM. For the same molecule, the TGI (PC-3 prostate) was 19.6 µM, the GI50 (EKVX NSCLC) was 9.84 µM and the TGI (EKVX NSCLC) was 24.1 µM. For the same molecule, the GI50 (M14 melanoma) was 1.25 µM, the TGI (M14 melanoma) was 14 µM and the GI50 (U251 CNS) was 1.61 µM. The TGI (U251 CNS) was 12.8 µM, the GI50 (ACHN renal) was 4.97 µM and the TGI (ACHN renal) was 19.2 µM. The GI50 (SF-268 CNS) was 4 µM, the TGI (SF-268 CNS) was 17.6 µM and the GI50 (NCI-H226 lung) was 4.56 µM. For the same molecule, the TGI (NCI-H226 lung) was 30.7 µM, the GI50 (SN12C renal) was 2.8 µM and the TGI (SN12C renal) was 18.6 µM. For the same molecule, the GI50 (HL-60(TB) leukemia) was 0.514 µM, the TGI (HL-60(TB) leukemia) was 12.4 µM and the GI50 (SF-539 CNS) was 3.98 µM. The TGI (SF-539 CNS) was 18.6 µM, the GI50 (IGROV1 ovarian) was 1.58 µM and the TGI (IGROV1 ovarian) was 6.65 µM. The GI50 (A498 renal) was 10.6 µM, the TGI (A498 renal) was 24.3 µM and the GI50 (UO-31 renal) was 3.35 µM. The TGI (UO-31 renal) was 14.5 µM, the GI50 (SK-OV-3 ovarian) was 4.87 µM and the TGI (SK-OV-3 ovarian) was 26 µM. For the same molecule, the GI50 (KM12 colon) was 3.36 µM, the TGI (KM12 colon) was 13.9 µM and the GI50 (TK-10 renal) was 3.29 µM. The TGI (TK-10 renal) was 14.1 µM, the GI50 (MOLT-4 leukemia) was 2.35 µM and the TGI (MOLT-4 leukemia) was over 100 µM. For the same molecule, the GI50 (SNB-19 CNS) was 9.92 µM, the TGI (SNB-19 CNS) was 24 µM and the GI50 (SNB-75 CNS) was 3.07 µM. For the same molecule, the TGI (SNB-75 CNS) was 18.1 µM, the GI50 (786-0 renal) was 3.46 µM and the TGI (786-0 renal) was 15.9 µM. The GI50 (HOP-62 NSCLC) was 4.04 µM, the TGI (HOP-62 NSCLC) was 15.5 µM and the GI50 (HCT-15 colon) was 0.6 µM. It also gave a TGI (HCT-15 colon) of 22.2 µM, a GI50 (UACC-62 melanoma) of 4.82 µM and a TGI (UACC-62 melanoma) of 21.9 µM. It also gave a GI50 (SK-MEL-2 melanoma) of 3.58 µM, a TGI (SK-MEL-2 melanoma) of 14.1 µM and a GI50 (OVCAR-8 ovarian) of 1.85 µM. The TGI (OVCAR-8 ovarian) was 13.6 µM, the GI50 (HT29 colon) was 0.352 µM and the TGI (HT29 colon) was 28.3 µM. It also gave a GI50 (COLO 205 colon) of 3.16 µM, a TGI (COLO 205 colon) of 10 µM and a GI50 (SF-295 CNS) of 3.47 µM. For the same molecule, the TGI (SF-295 CNS) was 13 µM, the GI50 (K-562 leukemia) was 0.33 µM and the TGI (K-562 leukemia) was over 100 µM. The GI50 (RXF 393 renal) was 3.76 µM, the TGI (RXF 393 renal) was 13.9 µM and the GI50 (A549 NSCLC) was 3.46 µM. For the same molecule, the TGI (A549 NSCLC) was 12.8 µM, the GI50 (MCF7 breast) was 0.739 µM and the TGI (MCF7 breast) was 21.9 µM. For the same molecule, the GI50 (OVCAR-3 ovarian) was 6.37 µM, the TGI (OVCAR-3 ovarian) was 19.3 µM and the GI50 (SK-MEL-5 melanoma) was 3.06 µM. It also gave a TGI (SK-MEL-5 melanoma) of 10.8 µM, a GI50 (NCI-H322M lung) of 3.1 µM and a TGI (NCI-H322M lung) of 8.18 µM. It also gave a GI50 (SK-MEL-28 melanoma) of 6.92 µM, a TGI (SK-MEL-28 melanoma) of 19.9 µM and a GI50 (SW-620 colon) of 0.382 µM. It also gave a TGI (SW-620 colon) of 27.3 µM, a GI50 (UACC-257 melanoma) of 1.61 µM and a TGI (UACC-257 melanoma) of 7.1 µM. The GI50 (CCRF-CEM leukemia) was 0.463 µM, the TGI (CCRF-CEM leukemia) was over 100 µM and the GI50 (BT-549 breast) was 5.2 µM. For the same molecule, the TGI (BT-549 breast) was 17.4 µM, the GI50 (NCI-H23 lung) was 3.54 µM and the TGI (NCI-H23 lung) was 17.7 µM. For the same molecule, the GI50 (DU-145 prostate) was 2.86 µM, the TGI (DU-145 prostate) was 8.9 µM and the GI50 (OVCAR-5 ovarian) was 4.95 µM. The TGI (OVCAR-5 ovarian) was 20.8 µM, the GI50 (MDA-MB-231 breast) was 5.2 µM and the TGI (MDA-MB-231 breast) was 20.7 µM. For the same molecule, the GI50 (LOX IMVI melanoma) was 0.358 µM, the TGI (LOX IMVI melanoma) was 12.7 µM and the GI50 (HCT-116 colon) was 0.317 µM. The TGI (HCT-116 colon) was 14.4 µM, the GI50 (HS 578T breast) was 7.23 µM and the TGI (HS 578T breast) was 74.7 µM. The GI50 (SR leukemia) was 0.609 µM, the TGI (SR leukemia) was 29.7 µM and the GI50 (RPMI-8226 leukemia) was 0.643 µM. For the same molecule, the TGI (RPMI-8226 leukemia) was 12.3 µM, the GI50 (T-47D breast) was 3.04 µM and the TGI (T-47D breast) was 17.1 µM. The GI50 (MDA-MB-435) was 1.76 µM, the TGI (MDA-MB-435) was 9.44 µM and the GI50 (NCI/ADR-RES ovarian) was 0.974 µM. It also gave a TGI (NCI/ADR-RES ovarian) of 17 µM, a GI50 (OVCAR-4 ovarian) of 0.805 µM and a TGI (OVCAR-4 ovarian) of 18.8 µM. For the same molecule, the GI50 (MALME-3M melanoma) was 4.48 µM, the TGI (MALME-3M melanoma) was 22 µM and the GI50 (NCI-H460 lung) was 3.39 µM. For the same molecule, the TGI (NCI-H460 lung) was 15.1 µM, the GI50 (CAKI-1 renal) was 1.58 µM and the TGI (CAKI-1 renal) was 7.2 µM.
